The values below are quoted from earlier work in paper PMC6925260 (Nature Communications, 2019).

For the data set the following is noted: pH 7.2; cited from earlier work.

In the case of `CN(CCOc1ccc(CC2SC(=O)NC2=O)cc1)c1ccccn1` (stereo not shown) [Rosiglitazone], the R/S interconversion half-life is 3 h.
